The source of these data is ChEMBL document CHEMBL1140408 (J Med Chem, 2005).

The chains behind the UniProt entries cited, without tags or fusion partners.
UniProt O35433, whole entry: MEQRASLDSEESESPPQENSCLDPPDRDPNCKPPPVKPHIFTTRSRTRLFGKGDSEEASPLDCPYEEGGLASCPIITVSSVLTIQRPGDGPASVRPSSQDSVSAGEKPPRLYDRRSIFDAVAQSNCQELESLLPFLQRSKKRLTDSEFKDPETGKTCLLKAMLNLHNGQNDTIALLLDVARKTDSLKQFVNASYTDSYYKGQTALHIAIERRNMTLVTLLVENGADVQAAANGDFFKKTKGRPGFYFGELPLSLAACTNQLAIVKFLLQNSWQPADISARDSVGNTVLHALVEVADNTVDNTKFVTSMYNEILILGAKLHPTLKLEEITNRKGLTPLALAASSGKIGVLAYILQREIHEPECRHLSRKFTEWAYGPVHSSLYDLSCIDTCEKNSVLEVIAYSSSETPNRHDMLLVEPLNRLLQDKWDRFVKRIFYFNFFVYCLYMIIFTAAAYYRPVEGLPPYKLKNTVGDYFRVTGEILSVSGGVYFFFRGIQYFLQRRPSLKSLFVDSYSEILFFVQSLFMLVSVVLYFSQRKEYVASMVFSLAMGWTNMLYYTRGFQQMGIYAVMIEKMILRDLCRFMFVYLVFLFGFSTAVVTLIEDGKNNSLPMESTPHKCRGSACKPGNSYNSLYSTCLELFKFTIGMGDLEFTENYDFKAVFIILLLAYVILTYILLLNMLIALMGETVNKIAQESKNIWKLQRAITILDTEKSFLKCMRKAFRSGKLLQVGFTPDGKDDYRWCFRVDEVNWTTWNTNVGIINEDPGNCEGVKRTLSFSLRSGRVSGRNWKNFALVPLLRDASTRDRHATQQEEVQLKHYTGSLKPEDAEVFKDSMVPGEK

The target in assay [1] is Transient receptor potential cation channel subfamily V member 1 (Rattus norvegicus) (UniProt O35433). The following applies: 10 uM.
In assay [2] the target is Transient receptor potential cation channel subfamily V member 1 (Rattus norvegicus, UniProt O35433). In words: Inhibitory effect on capsaicin (0.5 uM)-induced calcium uptake in rat DRG neurons upon incubation at RT for 10 minutes. The method in brief:
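Neonatal Sprague–Dawley rat DRG neurons, dissociated with collagenase/trypsin and cultured 3 days with 200 ng/mL NGF (cytosine arabinoside for the first 2 days), were washed in Ca/Mg-free HBSS with 10 mM HEPES at pH 7.4. They were then given 45Ca2+ (10 µCi/mL), 0.5 µM capsaicin and compound for 10 min at room temperature, SDS-lysed and scintillation-counted.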

Assay [3] deals with Transient receptor potential cation channel subfamily V member 1 (Rattus norvegicus) (UniProt O35433). The following applies: 30 uM.

`CC(C)(C)c1ccc(C/N=C(\S)NCc2ccc(N)c(F)c2)cc1` returned an Agonistic activity in assay [1] of 36%. The IC50 is the concentration that inhibits the measured activity by half. In the case of `CC(=O)Nc1ccc(C/N=C(\S)NCc2ccc(C(C)(C)C)cc2)cc1F`, the IC50 in assay [2] worked out at 1.5 µM.

`CC(C)(C)c1ccccc1C/N=C(\S)NCc1ccc(NS(C)(=O)=O)c(F)c1` registered an Agonistic activity in assay [1] of 28%. Still for that read-out and setting: as for `COC(=O)Nc1ccc(C/N=C(\S)NCc2ccc(C(C)(C)C)cc2)cc1F`, the figure is 72%. `CC(C)(C)c1ccc(C/N=C(\S)NCc2ccc(NCC(=O)O)c(F)c2)cc1`: in assay [3], the Agonistic activity came to 19%.
